Chains of the proteins cited; added tags and fusions are not shown. Residues count along the entry.
UniProt Q61606, 27-485 limits assumed: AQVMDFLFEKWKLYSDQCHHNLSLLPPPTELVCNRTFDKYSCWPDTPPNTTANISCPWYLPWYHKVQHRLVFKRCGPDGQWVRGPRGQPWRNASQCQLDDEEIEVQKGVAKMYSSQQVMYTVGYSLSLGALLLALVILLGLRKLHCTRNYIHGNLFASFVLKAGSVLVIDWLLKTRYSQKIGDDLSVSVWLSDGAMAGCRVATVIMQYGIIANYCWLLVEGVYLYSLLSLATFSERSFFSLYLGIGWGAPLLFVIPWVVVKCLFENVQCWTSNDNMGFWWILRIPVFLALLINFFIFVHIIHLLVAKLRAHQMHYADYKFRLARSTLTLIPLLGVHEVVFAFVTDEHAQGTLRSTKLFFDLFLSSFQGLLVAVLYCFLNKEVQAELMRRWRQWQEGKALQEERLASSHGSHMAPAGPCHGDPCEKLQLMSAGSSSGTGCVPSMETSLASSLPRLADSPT
UniProt P30082, 27-485 limits assumed: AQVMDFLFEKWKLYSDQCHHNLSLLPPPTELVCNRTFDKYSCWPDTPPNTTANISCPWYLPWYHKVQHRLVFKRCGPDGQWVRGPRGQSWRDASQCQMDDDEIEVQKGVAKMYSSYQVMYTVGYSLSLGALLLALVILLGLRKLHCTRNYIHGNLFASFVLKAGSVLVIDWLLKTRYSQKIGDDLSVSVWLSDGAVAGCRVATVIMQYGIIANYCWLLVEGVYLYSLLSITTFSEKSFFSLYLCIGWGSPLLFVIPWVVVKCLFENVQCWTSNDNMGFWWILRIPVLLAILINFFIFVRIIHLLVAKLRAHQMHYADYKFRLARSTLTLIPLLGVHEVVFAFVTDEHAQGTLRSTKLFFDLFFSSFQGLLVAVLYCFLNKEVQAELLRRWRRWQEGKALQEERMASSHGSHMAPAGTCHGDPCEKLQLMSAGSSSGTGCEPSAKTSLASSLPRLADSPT

According to patent US7514452B2, “2-furancarboxylic acid hydrazides and pharmaceutical compositions containing the same” (Dainippon Pharmaceutical Co., Ltd, priority 2002, dated 2009):

Assays:
glucagon receptor [1] = target: glucagon receptor (Mus musculus, UniProt Q61606); assay: Experiment for glucagon binding inhibition, mouse hepatic membrane (125I-glucagon); settings: read-out: Glucagon binding inhibitory activity IC50 (nM) Mouse; male ddY mouse hepatic membrane, 125I-glucagon 50 pM, 25° C. for 30 minutes
Procedure: (§1) The preparation of membrane from mouse and rat livers was carried out according to the method described in Bioorg. Med. Chem. Lett. 1992, 12, 915-918 in this experiment and ^125I-glucagon binding activity was measured with these membranes as glucagon receptor's samples. Livers were removed from male SD rats (about 250 g body weight per rat) and male ddY mice (about 30 g body weight per mouse). […] The homogenate was centrifuged for 15 minutes at 30,000×g. […] The precipitaion thus obtained was used as a hepatic membrane sample. […] The mixture was incubated at 25° C. for 30 minutes. […] The filter was washed 3 times with 50 mM Tris-HCl buffer (pH 7.2), and the radioactivity of the filter was measured by a γ counter (ARC-360, Aloka Co., Ltd.). […] Each experiment was carried out in duplicate. […] The concentration at 50% inhibition of binding (IC50) was calculated using a pseudo Hill plot.

glucagon receptor [2] = target: glucagon receptor (Rattus norvegicus, UniProt P30082); assay: Experiment for glucagon binding inhibition, rat hepatic membrane (125I-glucagon); settings: read-out: Glucagon binding inhibitory activity IC50 (nM) Rat; male SD rat hepatic membrane, 125I-glucagon 50 pM, 25° C. for 30 minutes
Procedure: as §1

Row | SMILES | IC50 (glucagon receptor [1]) | IC50 (glucagon receptor [2])
1 | C=C(c1ccccc1)c1cccc(-c2ccoc2C(=O)NNC(=O)c2ccc(O)c([N+](=O)[O-])c2)c1 | 210 nM | 160 nM
2 | CC(C)Cc1cccc(-c2ccoc2C(=O)NNC(=O)c2ccc(O)c([N+](=O)[O-])c2)c1 | 110 nM | 110 nM
3 | CCCCCCOc1ccc(-c2ccoc2C(=O)NNC(=O)c2ccc(O)c([N+](=O)[O-])c2)cc1 | 20 nM | 15 nM
4 | O=C(NNC(=O)c1occc1-c1cccc(C2CCCCC2)c1)c1ccc(O)c([N+](=O)[O-])c1 | 55 nM | 24 nM
